Source: article PMC4465237 (The Biochemical journal, 2013)

Columns and labels:
[1] = molecular target: T1, FLAG-hSIRT1-FL (full length human SIRT1, FLAG-tagged) (human, UniProt Q96EB6 1-747); assay: pull-down
T1 sequence (looked up): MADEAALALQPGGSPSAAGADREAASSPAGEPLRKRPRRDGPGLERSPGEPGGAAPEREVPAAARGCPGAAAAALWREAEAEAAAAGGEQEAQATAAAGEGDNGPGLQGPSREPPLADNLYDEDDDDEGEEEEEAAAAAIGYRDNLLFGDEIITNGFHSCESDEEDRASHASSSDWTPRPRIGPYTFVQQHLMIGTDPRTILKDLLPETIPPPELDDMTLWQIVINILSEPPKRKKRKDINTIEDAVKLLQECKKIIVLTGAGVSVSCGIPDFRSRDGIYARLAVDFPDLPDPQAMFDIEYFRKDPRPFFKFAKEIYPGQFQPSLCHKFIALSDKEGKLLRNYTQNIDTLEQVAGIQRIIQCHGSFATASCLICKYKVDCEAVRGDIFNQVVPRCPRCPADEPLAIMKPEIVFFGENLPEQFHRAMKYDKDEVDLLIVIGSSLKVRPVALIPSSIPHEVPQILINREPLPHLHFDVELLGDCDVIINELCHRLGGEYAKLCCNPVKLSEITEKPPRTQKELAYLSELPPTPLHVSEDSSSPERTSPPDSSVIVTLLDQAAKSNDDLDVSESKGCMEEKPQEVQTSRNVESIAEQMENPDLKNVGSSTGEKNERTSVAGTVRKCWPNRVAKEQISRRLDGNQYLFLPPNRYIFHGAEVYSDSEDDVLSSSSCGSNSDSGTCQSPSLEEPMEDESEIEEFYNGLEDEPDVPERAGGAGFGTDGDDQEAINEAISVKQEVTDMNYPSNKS

[2] = molecular target: T2, FLAG-hSIRT1-NT (N-terminus truncated human SIRT1 with residues 7–83 deleted, FLAG-tagged) (human, UniProt Q96EB6 1-747, residues 7–83 deleted); assay: pull-down
T2 sequence (looked up): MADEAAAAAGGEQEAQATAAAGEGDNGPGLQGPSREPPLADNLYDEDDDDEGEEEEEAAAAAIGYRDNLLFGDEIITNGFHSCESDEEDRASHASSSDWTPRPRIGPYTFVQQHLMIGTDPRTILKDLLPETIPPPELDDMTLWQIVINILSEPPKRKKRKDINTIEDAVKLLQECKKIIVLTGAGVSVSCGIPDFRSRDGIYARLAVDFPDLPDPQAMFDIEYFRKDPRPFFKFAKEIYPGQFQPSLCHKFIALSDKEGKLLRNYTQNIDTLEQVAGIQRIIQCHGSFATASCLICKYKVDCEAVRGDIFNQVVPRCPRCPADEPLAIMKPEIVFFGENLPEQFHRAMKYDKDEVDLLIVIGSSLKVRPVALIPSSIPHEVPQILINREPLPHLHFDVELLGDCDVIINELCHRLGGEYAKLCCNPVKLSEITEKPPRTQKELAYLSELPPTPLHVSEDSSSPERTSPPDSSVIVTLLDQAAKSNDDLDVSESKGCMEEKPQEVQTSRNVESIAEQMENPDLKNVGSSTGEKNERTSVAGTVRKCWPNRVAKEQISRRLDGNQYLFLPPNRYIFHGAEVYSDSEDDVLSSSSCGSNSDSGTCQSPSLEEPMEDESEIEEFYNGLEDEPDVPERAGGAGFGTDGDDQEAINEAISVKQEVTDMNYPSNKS

- binding result [1]: binds
- binding result [2]: binds
B1: GST-hTDG-FL (human thymine DNA glycosylase, intact, GST fusion) (enzyme, UniProt Q13569 1-410, looked up)
chain: MEAENAGSYSLQQAQAFYTFPFQQLMAEAPNMAVVNEQQMPEEVPAPAPAQEPVQEAPKGRKRKPRTTEPKQPVEPKKPVESKKSGKSAKSKEKQEKITDTFKVKRKVDRFNGVSEAELLTKTLPDILTFNLDIVIIGINPGLMAAYKGHHYPGPGNHFWKCLFMSGLSEVQLNHMDDHTLPGKYGIGFTNMVERTTPGSKDLSSKEFREGGRILVQKLQKYQPRIAVFNGKCIYEIFSKEVFGVKVKNLEFGLQPHKIPDTETLCYVMPSSSARCAQFPRAQDKVHYYIKLKDLRDQLKGIERNMDVQEVQYTFDLQLAQEDAKKMAVKEEKYDPGYEAAYGGAYGENPCSSEPCGFSSNGLIESVELRGESAFSGIPNGQWMTQSFTDQIPSFSNHCGTQEQEEESHA
